Reference: publication PMC12606641, “Surface Density of Mono- and Trivalent High-Mannan-Derived Targeting Structures with Different Affinities Impacts Cellular Uptake of Human Serum Albumin-Derived Nanocarriers” (Biomacromolecules, 2025)
Entries after “also recorded” stand apart in the source; their conditions may differ.

Tests used:
[1] = Dynamic light scattering (DLS) of HSA conjugates; type: physicochemical; conditions: 10–20 uM in MQ; for Size: triplicates, error = standard deviation
Description: Measurements of HSA-based compounds (10 μM in MQ) were performed at 25 °C using a Zetasizer Nano S (Malvern Instruments, Malvern, England) equipped with a He/Ne Laser (λ = 633 nm) and a narrow band filter at a fixed scattering angle of 173 °. Volume distribution of DLS measurements of compounds were used to determine the compounds size distribution.
Table S 2: Sizes (d. nm) and PDIs of low valency TS-HSA conjugates determined by DLS measurements (10–20 uM in MQ).
Measurements were performed in triplicates; errors are given as standard deviation.
4.2.7 Preparation of saturated TS-HSA neoglycoalbumins
DBCO47-HSA (0.3 mg, 3.24 nmol, 1 eq.) was dissolved in 50 mM phosphate buffer with 8 M urea and
2 mM EDTA (pH = 8) to a final protein concentration of 1 mg/mL. The azide functionalized TS
(855 μmol, 264 eq. or 5.6 eq/DBCO) dissolved in MQ (10 mg/mL) was added and the reaction solution
was inverted (10 rpm) at room temperature for 1 day. Afterwards, the reaction solution was purified
(1 x reaction buffer, 5 x MQ) and concentrated via ultracentrifugation spin filter (Vivaspin, PES,
10 kDa). The product was lyophilized and obtained in the form of a blue lyophilizate quantitatively.
Table S 3: Summary table of synthesized conjugates of the saturated valency regime.
Code Conjugate MALDI-ToF-MS DoM:
Figure S 2: Agarose gel electrophoresis of saturated NCs carrying different TSs (Number of Ts: Man: 43, Man 3: 45, (Man) 3:
42, (Man3)3: 38) as well as precursor conjugates DBCO 47-HSA and control conjugate C I (left Cy5-channel, right Coomassie
brilliant blue staining).
Table S 4: Sizes (d. nm) and PDIs of saturated TS-HSA conjugates determined by DLS measurements (10 –20 uM in MQ).
Conjugate Size (d. nm) PDI
(1 picture or pasted object on this page, not shown here)

GM-CSF BMDCs = experiment: FACS analysis of cellular uptake of Cy5-labeled HSA conjugates in GM-CSF BMDCs; type: cell-based, murine; conditions: 50 nM conjugate, overnight incubation, Cy5 signal by FACS
Description: Murine bone marrow cells (2·10^5/mL for GM-CSF supplemented culture) were seeded in 12-well suspension culture plates (Greiner Bio-One, Frickenhausen, BW, Germany) in culture medium (IMDM, 2 mM L-glutamine, 100 U/mL penicillin G, 100 μg/mL streptomycin (Sigma-Aldrich, Deisenhofen, BY, Germany) and 50 μM β-mercaptoethanol (Carl Roth, Karlsruhe, BW, Germany) containing 5% FBS (PAN-Biotech, Aidenbach, BY, Germany)) supplemented with recombinant murine GM-CSF (10 ng/mL) (Miltenyi Biotec, Bergisch Gladbach, NRW, Germany). Cells were kept at 37 °C, 95% relative humidity, and 5% CO2. Culture media was replenished on day 3 and 6 with GM-CSF supplemented cell culture medium.
After treatment, GM-CSF BMDCs and splenocytes were harvested, washed with staining buffer (PBS, 1% FBS, 0.5 mM EDTA) and incubated with rat antimouse CD16/CD32 antibody (clone 2.4G2; 15 min, 4 °C) to prevent antibody binding to Fcγ receptors. Following this, the samples were incubated with fluorescence-labeled antibodies (20 min, 4 °C). Then, samples were washed with PBS and incubated with a flexible viability dye (FVD, 1:1000 in PBS, 30 min, 4 °C) to identify live/dead cells. Measurements were carried out using an Attune NxT flow cytometer and data were analyzed using Attune NxT software (both are from Thermo Fisher, Waltham, MA, USA).
To investigate the influence of the designed TSs in a more application-focused setting, we proceeded with in vitro experiments using receptors organized in their natural form. For this purpose, we synthesized different HSA-based NCs decorated with all tested TSs (section 4.2 in the Supporting Information) either within the low-valency regime carrying one to three mono- and trivalent TSs (TS I–III), six and nine monovalent TSs (TS VI, TS IX) per NC or within the saturated valency regime saturated with the maximum possible number of TSs per NC (38–45, TSsat). […] The low degrees of modification are supposed to allow a systematic study of potential contributions of avidity effects of the trivalent TSs to receptor interaction and cellular uptake, which would be otherwise superimposed by avidity effects originating from NCs with high valency. Untreated cells (UT) or cells treated with the TLR7/8 agonist R848 as well as cells treated with control conjugates, which are Cy5-labeled only (C I), DBCO-modified (13 groups, C II) or DBCO-modified and capped via SPAAC with triethylene glycol residues (C III), were used as controls for comparison. An in vitro study comprising overnight incubation of Granulocyte macrophage colony-stimulating factor (GM-CSF) BMDCs together with the Cy5-labeled TS-HSA conjugates and following FACS analysis was conducted (Figure and Figure ). […] Observed effects on uptake levels thus are assumed not to be impacted by receptor availability. Also, an influence of slow receptor recycling, which affects their availability, is unlikely for CD206 and CD209 due to the reported rapid recycling kinetics and the long incubation time overnight. , Additionally, receptor depletion, which is most relevant for nano rods and large NCs (>60 nm), is supposed to be neglectable as well due to the size (∼7 nm) and globular shape of the HSA-NCs. ,− In the following, the cellular uptake as a measure of targeting capability and thus indirectly also binding strength of the four groups of TS-HSA conjugates (M, TM, MD, TMD, Figure C) is analyzed and evaluated regarding their general uptake trend and the influence of (i) TS surface density and NC valency, (ii) the epitope type, and (iii) epitope clustering. The general uptake trends of NCs in BMDCs functionalized with increasing numbers of statistically attached TSs are visualized with a linear plot of the cellular uptake against the number of TSs per NC for all conjugates (Figure A) and by plots grouping respective conjugates to enable comparison of NC valency and surface density within each TS type (Figure C). […]

Row | Substance | PDI [1] | Size [1] [nm·days] | cellular uptake (GM-CSF BMDCs)
1 | C I: control: Cy5-labeled HSA, maleimide ring opened | 0.703 | 6.8 ± 0.3 | limited unspecific uptake
2 | C II: control: DBCO-HSA with 13 DBCO groups attached | 0.844 | 5.7 ± 0.2 | limited unspecific uptake
3 | C III: control: HO-PEG3-HSA, 13 DBCO groups saturated with capping reagent | 0.975 | 4.8 ± 0.5 | limited unspecific uptake
4 | M II: Cy5-HSA nanocarrier with 2 ManN3 TS attached | 1.000 | 4.2 ± 1.4 | –
5 | M IX: Cy5-HSA nanocarrier with 9 ManN3 TS attached | 0.827 | 7.0 ± 1.0 | –
6 | M VI: Cy5-HSA nanocarrier with 6 ManN3 TS attached | 1.000 | 4.6 ± 1.3 | significant benefit
7 | MD I: Cy5-HSA nanocarrier with 1 (Man)3N3 TS attached | 0.628 | 8.0 ± 1.0 | significantly enhanced cell uptake; also recorded: significantly higher cellular uptake than M I
8 | MD III: Cy5-HSA nanocarrier with 3 (Man)3N3 TS attached | 0.816 | 3.7 ± 0.6 | –
9 | TM I: Cy5-HSA nanocarrier with 1 Man3N3 TS attached | 0.978 | 9.6 ± 1.0 | –
10 | TM III: Cy5-HSA nanocarrier with 3 Man3N3 TS attached | 0.855 | 6.7 ± 0.4 | –
11 | TM IX: Cy5-HSA nanocarrier with 9 Man3N3 TS attached | 0.848 | 5.4 ± 0.2 | –
12 | TMD I: Cy5-HSA nanocarrier with 1 (Man3)3N3 TS attached | 0.691 | 6.2 ± 0.2 | significantly enhanced cell uptake
13 | TMD II: Cy5-HSA nanocarrier with 2 (Man3)3N3 TS attached | 0.829 | 7.6 ± 0.1 | –
14 | TMD III: Cy5-HSA nanocarrier with 3 (Man3)3N3 TS attached | 0.697 | 6.8 ± 0.8 | –
15 | [(Man3)3]38-HSA [TMDsat] | 0.697 | 11.7 ± 0.8 | significant decrease in cellular uptake
16 | [(Man)3]42-HSA [MDsat] | 0.570 | 8.3 ± 0.1 | significant decrease in cellular uptake
17 | [Man3]45-HSA [TMsat] | 0.692 | 6.8 ± 0.1 | outperforms TMDsat
18 | [Man]3-HSA [M III] | 0.926 | 2.8 ± 0.4 | –
19 | [Man]43-HSA [Msat] | 0.581 | 6.3 ± 1.3 | highest cellular uptake
